How the values were obtained:
Opioid receptor [1] = target: T1, Opioid receptor (Rattus norvegicus, UniProt P33533+P34975+P33535); assay: Compound was evaluated for the binding affinity towards opioid receptor from rat whole brain using [3H]etorpine (33.2 Ci/mmol,0.2nanoM)as radioligand
Opioid receptor [2] = target: T1, Opioid receptor; assay: Binding affinity towards opioid receptor from rat whole brain using [3H]etorpine as radioligand

Sequences of proteins named here, by UniProt entry; tags and fusion partners are left off.
UniProt P33533, whole entry: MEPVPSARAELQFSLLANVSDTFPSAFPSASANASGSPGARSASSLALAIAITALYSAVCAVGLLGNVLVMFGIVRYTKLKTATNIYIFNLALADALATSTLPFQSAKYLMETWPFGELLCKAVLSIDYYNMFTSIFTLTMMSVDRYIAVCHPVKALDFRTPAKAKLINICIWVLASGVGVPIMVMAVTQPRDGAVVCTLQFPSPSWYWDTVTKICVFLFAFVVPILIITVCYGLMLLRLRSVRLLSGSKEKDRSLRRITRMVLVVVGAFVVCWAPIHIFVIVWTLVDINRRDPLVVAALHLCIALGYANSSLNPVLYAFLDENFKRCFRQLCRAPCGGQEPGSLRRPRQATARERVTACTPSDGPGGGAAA
UniProt P34975, whole entry: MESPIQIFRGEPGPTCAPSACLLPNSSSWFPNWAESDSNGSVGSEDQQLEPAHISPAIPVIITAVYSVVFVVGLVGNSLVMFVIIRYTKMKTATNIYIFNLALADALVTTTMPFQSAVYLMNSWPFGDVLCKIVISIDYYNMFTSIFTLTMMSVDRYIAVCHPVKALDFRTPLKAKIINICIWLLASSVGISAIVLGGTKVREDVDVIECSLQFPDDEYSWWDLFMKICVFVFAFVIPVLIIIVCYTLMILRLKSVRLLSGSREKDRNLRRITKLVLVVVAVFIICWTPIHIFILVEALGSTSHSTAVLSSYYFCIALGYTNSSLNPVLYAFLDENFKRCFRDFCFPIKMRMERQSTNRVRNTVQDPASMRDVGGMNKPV
UniProt P33535, whole entry: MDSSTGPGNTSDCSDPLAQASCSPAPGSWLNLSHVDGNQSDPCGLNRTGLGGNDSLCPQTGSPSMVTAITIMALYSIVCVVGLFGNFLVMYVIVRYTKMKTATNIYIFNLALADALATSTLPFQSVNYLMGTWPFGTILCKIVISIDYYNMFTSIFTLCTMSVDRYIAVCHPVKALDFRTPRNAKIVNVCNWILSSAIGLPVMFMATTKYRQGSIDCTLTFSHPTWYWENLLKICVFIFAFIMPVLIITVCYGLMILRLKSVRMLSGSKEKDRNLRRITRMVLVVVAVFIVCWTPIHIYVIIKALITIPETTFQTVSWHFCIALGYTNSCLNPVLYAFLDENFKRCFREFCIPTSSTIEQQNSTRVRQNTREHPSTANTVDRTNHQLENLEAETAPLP

SMILES | Ki (Opioid receptor [1]) | Ki (Opioid receptor [2])
CCCCOC(=O)c1cc2c3c(ccc2[nH]1)OCC(CN1CCC2(CC1)C(=O)NCN2c1ccccc1)O3 (stereo not given) | 3.1 nM | –
O=C1NCN(c2ccccc2)C12CCN(CC1COc3ccc4[nH]c(CO)cc4c3O1)CC2 (stereo not given) | 3.3 nM | –
NC(=O)c1cc2c3c(ccc2[nH]1)OCC(CN1CCC2(CC1)C(=O)NCN2c1ccccc1)O3 (stereo not given) | 0.6 nM | –
N#Cc1cc2c3c(ccc2[nH]1)OCC(CN1CCC2(CC1)C(=O)NCN2c1ccccc1)O3 (stereo not given) | 0.1 nM | –
COC(=O)c1cc2c3c(ccc2[nH]1)OCC(CN1CCC2(CC1)C(=O)NCN2c1ccccc1)O3 (stereo not given) | – | 6.5 nM

Reference: ChEMBL document CHEMBL1125523, “Novel indolodioxanes with antihypertensive effects: potent ligands for the 5-HT1A receptor” (J Med Chem, 1992)
